# How the values were obtained:
# [1] = test system: basal keratinocytes of mouse epidermis; settings: dissolved in organic solvent like acetonitrile or acetone; data not shown
# [2] = sustained topical treatment, four weeks
# [3] = topical 1 μmole SF in jojoba oil twice a week for four weeks
# [4] = topical 1 μmole SF in jojoba oil, four weeks, relative to vehicle
structure (smiles),measurement,setting,value
"C[S+]([O-])CCCCN=C=S (stereo not drawn) [SF, 4-methylsulfinylbutyl isothiocyanate]",effect on rate of apoptosis in skin,SKH-1 hairless mice; [2],did not appear to affect skin morphology or alter the rate of apoptosis
same,effect on skin morphology,SKH-1 hairless mice; [2],did not appear to affect
same,K14 immunoreactivity in skin,SKH-1 hairless mice; [3],no change
same,K16 immunoreactivity in skin,SKH-1 hairless mice; [3],increased
same,K17 immunoreactivity in skin,"SKH-1 hairless mice; topical 1 μmole SF in jojoba oil twice a week for four weeks, vs vehicle-treated skin, extended to basal layer",markedly increased
same,K14 level in total protein extracts of dorsal skin,SKH-1 hairless mice; [4],unaltered
same,K16 level in total protein extracts of dorsal skin,SKH-1 hairless mice; [4],increased levels
same,K17 level in total protein extracts of dorsal skin,SKH-1 hairless mice; [4],increased levels
same,K17 in basal layer of epidermis,"K14 null mice; back skin of P2 mice, immunohistochemistry",presence of K17 antigens in the basal layer
same,outcome beyond P4,"K14 null mice; revised regimen, progressive wasting beyond P4",most of them died within a day or two
same,maintenance of K16/K17 expression in the oral mucosa,K14 null mice; topical delivery during postnatal phase,not effective
same,effect reaching basal layer of epidermis,[1],does not reach the basal layer of epidermis

# From patent publication US9308192B2, “Use of NRF2 inducers to treat epidermolysis bullosa simplex and related diseases” (priority 2007, dated 2016)
